In patent US10174016B2 (BAYER AKTIENGESELLSCHAFT, priority 2014, dated 2019):
Like-named read-outs stand apart in the source and are kept apart here.

The chains behind the UniProt entries cited, without tags or fusion partners. Where a name states a change or a piece, a line headed by the entry shows the natural chain unless it says otherwise.
UniProt P56373: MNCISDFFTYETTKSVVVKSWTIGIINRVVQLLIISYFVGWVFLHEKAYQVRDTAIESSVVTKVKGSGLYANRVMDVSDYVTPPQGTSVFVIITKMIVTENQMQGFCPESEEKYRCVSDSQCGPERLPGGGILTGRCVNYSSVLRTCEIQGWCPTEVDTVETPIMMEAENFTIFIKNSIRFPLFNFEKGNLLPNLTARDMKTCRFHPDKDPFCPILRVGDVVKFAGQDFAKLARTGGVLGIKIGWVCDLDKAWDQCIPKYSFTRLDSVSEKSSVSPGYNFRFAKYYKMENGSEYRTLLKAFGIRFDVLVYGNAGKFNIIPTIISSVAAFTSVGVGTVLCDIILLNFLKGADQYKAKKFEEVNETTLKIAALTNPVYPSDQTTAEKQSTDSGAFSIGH
UniProt Q9UBL9: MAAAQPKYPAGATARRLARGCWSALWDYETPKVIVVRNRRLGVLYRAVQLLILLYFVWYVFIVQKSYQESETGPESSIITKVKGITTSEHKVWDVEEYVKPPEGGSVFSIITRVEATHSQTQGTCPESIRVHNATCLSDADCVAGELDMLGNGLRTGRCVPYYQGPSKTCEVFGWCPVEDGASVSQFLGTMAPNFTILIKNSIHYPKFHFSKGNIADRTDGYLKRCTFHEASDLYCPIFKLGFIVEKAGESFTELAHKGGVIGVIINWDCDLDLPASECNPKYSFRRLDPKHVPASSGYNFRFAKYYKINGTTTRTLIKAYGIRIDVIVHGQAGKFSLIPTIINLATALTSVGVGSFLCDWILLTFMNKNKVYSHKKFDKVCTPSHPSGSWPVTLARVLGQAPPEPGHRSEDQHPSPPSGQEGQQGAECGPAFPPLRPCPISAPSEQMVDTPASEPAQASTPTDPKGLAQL

How the values were obtained:
[1] = biological target: human P2X2/3 receptor (Homo sapiens (Human), UniProt P56373+Q9UBL9); assay: Intracellular calcium measurement (FLIPR, Fluo-4) of antagonist activity at human P2X2/3 receptors; assay type: cell-based; conditions: human P2X2/3, FLIPR calcium assay, agonist α,β-Me-ATP; read-out: hP2X2/3 IC50
[2] = biological target: human P2X3 receptor (Homo sapiens (Human), UniProt P56373)
[3] = hP2X3 IC50 (nM), human P2X3, FLIPR calcium assay, agonist α,β-Me-ATP

IC50 [2, 3] [nM] | Compound | IC50 [1] [nM] | other results
 | Cc1cnc(-c2cc(OC(C)C(C)O)cc(C(=O)N[C@H](C)c3ccc(C(F)(F)F)nn3)c2)s1 (single isomer, unassigned) [Example 183] | 398 | 
6 | CC(O)C(C)Oc1cc(C(=O)N[C@H](C)c2cnc(C(F)(F)F)nc2)cc(-c2ncc(Cl)s2)c1 (single isomer, unassigned) [Example 184] | 128 | 
4 | CC(O)C(C)Oc1cc(C(=O)N[C@H](C)c2cnc(C(F)(F)F)nc2)cc(-c2ncc(Cl)s2)c1 (single isomer, unassigned) [Example 185] | 123 | IC50 ([2]; human P2X3 receptor IC50): 4 nM
10 | CC(O)C(C)Oc1cc(C(=O)N[C@H](C)c2ccc(C(F)(F)F)nc2)cc(-c2ncc(Cl)s2)c1 (single isomer, unassigned) [Example 186] | 247 | 
7 | CC(O)C(C)Oc1cc(C(=O)N[C@H](C)c2cnc(C(F)(F)F)nc2)cc(-c2ncc(Cl)s2)c1 (single isomer, unassigned) [Example 187] | 218 | 
5 | CC(O)C(C)Oc1cc(C(=O)N[C@H](C)c2cnc(C(F)(F)F)nc2)cc(-c2ncc(Cl)s2)c1 (single isomer, unassigned) [Example 188] | 164 | 
8 | CC(O)C(C)Oc1cc(C(=O)N[C@H](C)c2ccc(C(F)(F)F)nc2)cc(-c2ncc(Cl)s2)c1 (single isomer, unassigned) [Example 189] | 258 | 
 | Cc1cnc(-c2cc(OC3CCOCC3)cc(C(=O)NC(C)c3nnc(C(F)(F)F)s3)c2)s1 (single isomer, unassigned) [Example 195, 3-(5-methyl-1,3-thiazol-2-yl)-5-(tetrahydro-2H-pyran-4-yloxy)-N-{1-[5-(trifluoromethyl)-1,3,4-thiadiazol-2-yl]ethyl}benzamide] | ≥ 10000 | 
 | Cc1cnc(-c2cc(OC3CCOCC3)cc(C(=O)NC(C)c3nnc(C(F)(F)F)s3)c2)s1 (single isomer, unassigned) [Example 196, 3-(5-methyl-1,3-thiazol-2-yl)-5-(tetrahydro-2H-pyran-4-yloxy)-N-{1-[5-(trifluoromethyl)-1,3,4-thiadiazol-2-yl]ethyl}benzamide] | 293 | 
 | Cc1cnc(-c2cc(OC3CCCNC3)cc(C(=O)N[C@H](C)c3cnc(C(F)(F)F)nc3)c2)s1 (single isomer, unassigned) [Example 205] | 272 | 
 | Cc1cnc(-c2cc(OC3CCCNC3)cc(C(=O)N[C@H](C)c3cnc(C(F)(F)F)nc3)c2)s1 (single isomer, unassigned) [Example 206] | 1680 | 
4 | Cc1cnc(-c2cc(OC3CCN(C)C(C(F)(F)F)C3)cc(C(=O)N[C@H](C)c3cnc(C(F)(F)F)nc3)c2)s1 (single isomer, unassigned) [Example 222] | 108 | 
 | Cc1cnc(-c2cc(OC(C)C(C)O)cc(C(=O)N[C@H](C)c3ccc(C(F)(F)F)nn3)c2)s1 (single isomer, unassigned) [Example 230] | 209 | 
 | Cc1cnc(-c2cc(OC(C)C(C)O)cc(C(=O)N[C@H](C)c3ccc(C(F)(F)F)nn3)c2)s1 (single isomer, unassigned) [Example 231] | 706 | 
 | CCc1cnc(-c2cc(OC[C@@H]3CCOC3)cc(C(=O)N[C@H](C)c3ccc(C(F)(F)F)nn3)c2)s1 [Example 292, 3-(5-ethyl-1,3-thiazol-2-yl)-5-[(3R)-tetrahydrofuran-3-ylmethoxy]-N-{(1R)-1-[6-(trifluoromethyl)pyridazin-3-yl]ethyl}benzamide] |  | IC50 ([2]; read-out: hP2X3 IC50): 6 nM
 | CCc1cnc(-c2cc(OC[C@H]3CCOC3)cc(C(=O)N[C@H](C)c3ccc(C(F)(F)F)nn3)c2)s1 [Example 296, 3-(5-ethyl-1,3-thiazol-2-yl)-5-[(3S)-tetrahydrofuran-3-ylmethoxy]-N-{(1R)-1-[6-(trifluoromethyl)pyridazin-3-yl]ethyl}benzamide] |  | IC50 ([2]; read-out: hP2X3 IC50, human P2X3, FLIPR calcium assay, agonist α,β-Me-ATP): 6 nM
